{"sequences": {"note": "Amino acid sequences for entries named in this document (tags omitted). Residues count along the entry.", "UniProt Q9NZQ7, 19-238 limits assumed": "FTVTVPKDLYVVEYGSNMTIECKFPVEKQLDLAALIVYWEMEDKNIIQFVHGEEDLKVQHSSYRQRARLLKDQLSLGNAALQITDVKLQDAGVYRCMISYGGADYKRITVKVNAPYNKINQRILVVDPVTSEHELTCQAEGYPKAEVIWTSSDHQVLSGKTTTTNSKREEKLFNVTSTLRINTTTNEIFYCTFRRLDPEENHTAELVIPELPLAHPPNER", "UniProt Q9NZQ7, 19-290 limits assumed": "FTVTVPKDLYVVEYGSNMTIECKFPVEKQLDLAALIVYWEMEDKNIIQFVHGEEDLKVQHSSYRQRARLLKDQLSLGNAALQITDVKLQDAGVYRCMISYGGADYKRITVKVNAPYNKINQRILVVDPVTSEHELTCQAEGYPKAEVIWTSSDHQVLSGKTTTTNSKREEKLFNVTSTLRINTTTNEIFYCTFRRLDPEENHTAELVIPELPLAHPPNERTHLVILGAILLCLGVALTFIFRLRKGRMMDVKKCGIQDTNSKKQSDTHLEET"}, "source": "patent US11760764B2", "about": "“Methods and compositions for targeting PD-L1” (Aligos Therapeutics, Inc., priority 2020, dated 2023)", "key": {"[1]": {"target": "PD-1/PD-L1 interaction (Jurkat cells overexpressing PD-1 co-cultured with PD-L1 expressing CHO cells) (Homo sapiens, UniProt Q9NZQ7)", "test": "PD-1/PD-L1 NFAT Reporter Assay", "conditions": "read-out: PD-1/PD-L1 NFAT Reporter Assay; Table C-1; Jurkat/CHO co-culture, 6 hrs at 37° C., luciferase activity", "experimental": "Blocking the PD-1/PD-L1 interaction will release the inhibitory signal and results in TCR signaling and NFAT-mediated luciferase activity.\nCHO cells expressing surface-bound anti-CD3 antibodies and PD-L1 were first seeded overnight and treated with the compounds. Jurkat cells overexpressing PD-1 and a luciferase construct under NF-AT promoter were then immediately seeded on the monolayer of CHO cells. The co-culture was then incubated for 6 hrs at 37° C. Luciferase activity was assessed by adding the ONE-Glo reagent and measuring luminescence with a plate reader. EC50s values were determined from the fit of the dose-response curves"}, "[2]": {"target": "PD-1/PD-L1 interaction (PDL1-6×His protein, PD1-Fc-Avi-Biotin protein) (Homo sapiens, UniProt Q9NZQ7)", "test": "PDL1/PD1 Binding Assay", "conditions": "read-out: Biological Data Biochem PD-1/PD-L1; Table C-1; 0.3 nM PDL1, 2.5 nM PD1"}}, "data": [{"compound": "CCOC(=O)C1CN(C2CCc3cc(-c4cccc(-c5cccc(-c6cc7c(c(OC)c6)C(N6CC(C(=O)O)C6)CC7)c5Cl)c4Cl)cc(OC)c32)C1", "note": "(centres unmarked)", "values": [{"measurement": "EC50", "setting": "[1]", "result": "100 to 1000", "unit": "nM"}, {"measurement": "IC50", "setting": "[2]", "result": "< 10", "unit": "nM"}]}]}
